This is a selection; strong and weak results do not stand in their true shares. Active and inactive are the calls of the source.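 The calls were made as follows: active = inhibition above about 35% when tested at 20 µM (limit read from the data); inactive = the rest.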

By UniProt entry, the sequences of proteins in these tests, tags left out.
UniProt Q2TB90, whole entry: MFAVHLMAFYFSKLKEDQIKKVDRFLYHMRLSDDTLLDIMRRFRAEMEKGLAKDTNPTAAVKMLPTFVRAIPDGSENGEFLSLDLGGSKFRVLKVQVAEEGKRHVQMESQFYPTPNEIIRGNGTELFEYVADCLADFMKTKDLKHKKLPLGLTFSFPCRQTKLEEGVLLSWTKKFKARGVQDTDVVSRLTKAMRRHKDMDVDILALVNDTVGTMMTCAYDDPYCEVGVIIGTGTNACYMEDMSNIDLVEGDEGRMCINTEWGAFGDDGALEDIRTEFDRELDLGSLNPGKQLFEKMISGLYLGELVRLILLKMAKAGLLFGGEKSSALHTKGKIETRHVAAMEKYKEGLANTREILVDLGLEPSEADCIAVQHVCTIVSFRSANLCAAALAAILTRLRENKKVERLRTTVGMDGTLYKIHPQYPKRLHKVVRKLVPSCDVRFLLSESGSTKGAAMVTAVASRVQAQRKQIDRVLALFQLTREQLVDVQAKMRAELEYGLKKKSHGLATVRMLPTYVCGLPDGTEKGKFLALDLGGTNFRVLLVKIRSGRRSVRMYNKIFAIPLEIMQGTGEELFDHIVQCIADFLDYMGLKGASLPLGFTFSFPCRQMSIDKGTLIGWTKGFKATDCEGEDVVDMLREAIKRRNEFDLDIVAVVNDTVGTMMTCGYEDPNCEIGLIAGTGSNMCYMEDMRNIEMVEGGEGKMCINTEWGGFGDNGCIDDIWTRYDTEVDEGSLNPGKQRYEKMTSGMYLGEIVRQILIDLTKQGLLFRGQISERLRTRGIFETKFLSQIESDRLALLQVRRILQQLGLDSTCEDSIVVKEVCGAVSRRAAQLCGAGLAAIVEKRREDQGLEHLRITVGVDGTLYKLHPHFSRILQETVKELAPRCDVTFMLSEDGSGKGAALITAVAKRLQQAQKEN

The assay concerns the target Hexokinase HKDC1 (Homo sapiens) (UniProt Q2TB90). The assay is described as follows: blockers of human HKDC1 enzyme activity – biochemical, fluorescence, uHTS, primary screen (AID 493160).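 Also: plate controls were DMSO wells with enzyme for no effect and DMSO wells lacking enzyme for full effect.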 Particulars: recombinant HKDC1, G6PDH/diaphorase resazurin coupled fluorescence; at 20 µM; active compounds read high. The procedure, abridged: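 Material – in-house recombinant HK5 (HKDC1) enzyme · Quantity – HKDC1 at 5 µg/mL · Buffer or medium – pH 8.0 Tris buffer with 10 mM MgCl2 · Reagent – glucose with 1 mM ATP · Dosing – single 20 µM dose · Times – reaction time 90 min, room temperature, protected from light · Technique – resorufin fluorescence at 613 nm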
Turning to `CC(C)(C)OC(=O)N1CCC(N(C(=O)c2ccccc2)c2ccc(F)cc2)CC1`, the inhibition was inactive: 1.88%.
For `COc1ccc(C(=O)NCC2(N3CCCCC3)CCCCC2)c(OC)c1OC`, the inhibition is inactive: -5.46%.
`COc1ccc(C(=O)NCC2(N3CCCCC3)CCCCC2)cc1`: the inhibition was inactive: -5.62%.
Take `O=C(NCC1(N2CCCCC2)CCCCC1)c1cccs1`: the inhibition was inactive: -0.84%.
For the compound `O=C(NCC1(N2CCCCC2)CCCCC1)c1ccc(=O)[nH]c1`, the inhibition is inactive: 0.86%.
Take `Cc1cccc(NC2(C#N)CCN(Cc3ccccc3)CC2)c1`: the inhibition is inactive: -2.84%.
On to `CSc1ccccc1C(=O)NCC1(N2CCCCC2)CCCCC1`, for which the inhibition was inactive: -6.66%.
Consider `Cc1cc(C)cc(N(C(=O)c2ccccc2)C2CCN(C(=O)OC(C)(C)C)CC2)c1`, for which the inhibition was inactive: -0.51%.
With `O=C(NCC1(N2CCCCC2)CCCCC1)c1ccc(Cl)nc1` the figure was inactive: -4.32%.
Take `O=C(NCC1(N2CCOCC2)CCCCC1)c1cc2ccccc2o1`: the inhibition was inactive: -1.07%.
`COc1ccc(Cl)cc1C(=O)NCC1(N2CCOCC2)CCCCC1`: the inhibition was inactive: -0.1%.
For the compound `O=C(OC1CN2CCC1CC2)C1c2ccccc2Oc2ccccc21` (stereo not given), the inhibition was inactive: 2.81%.
Regarding `O=C(NCC1(N2CCCCC2)CCCCC1)c1ccc(Cl)s1`, the inhibition is inactive: -3.51%.
Turning to `N#CC1(Nc2ccccc2)CCN(Cc2ccccc2)CC1`, the inhibition is inactive: -1.26%.
Consider `CCOC(=O)N1CCC(Nc2ccc(OC)cc2)CC1`, for which the inhibition is inactive: -7.66%.
In the case of `O=C1CCN(Cc2ccccc2)CC1`, the inhibition is inactive: -9.85%.
On to `CCOc1ccc(C)cc1CN(CCCl)CCCl`, for which the inhibition is inactive: 9.34%.
With `CCOC(=O)N1CCC(Nc2ccc(F)cc2)CC1`, the inhibition is inactive: 8.43%.
On to `COc1ccc(NC2CCN(CCc3ccccc3)CC2)c(OC)c1`, for which the inhibition is inactive: 11.6%.
With `O=C(NCC1(N2CCCCC2)CCCCC1)c1ccc(F)cc1`, the inhibition was inactive: -5.34%.
Take `CCCCOc1ccc(C(=O)NCC2(N3CCOCC3)CCCCC2)cc1`: the inhibition is inactive: -2.63%.
With `O=P1(N(CCCl)CCCl)SCCCS1` the figure was inactive: -5.98%; with `COc1cc(C(=O)NCC2(N(C)C)CCCCC2)ccc1OC(F)F`, inactive: -4.78%.
As to `CCOC(=O)N1CCC(Nc2cccc(C)c2)CC1`, the inhibition is inactive: 9.57%.
With `O=C(NCC1(N2CCCCC2)CCCCC1)c1ccc(OC(F)F)cc1` the figure was inactive: -6.51%; with `N#CC1(Nc2ccccc2)CCN(CCc2ccccc2)CC1`, inactive: -5.33%; with `CCN1CCC(Nc2ccc(Cl)cc2)CC1`, inactive: 7.19%.
In the case of `O=C(NCC1(N2CCCCC2)CCCCC1)c1cccc([N+](=O)[O-])c1`, the inhibition was inactive: -12.1%.
For `CSc1ccc(C(=O)NCC2(N3CCOCC3)CCCCC2)cc1`, the inhibition was inactive: -2.78%.
`O=C(NCC1(N2CCCCC2)CCCCC1)c1cccc(C(F)(F)F)c1`: the inhibition was inactive: -2.76%.
As for `O=C(NCC1(N2CCOCC2)CCCCC1)c1cc(=O)[nH]c2ccccc12`, the inhibition was inactive: -6.02%.
Turning to `COc1cc(C(=O)NCC2(N3CCCCC3)CCCCC2)ccc1OC(F)F`, the inhibition is inactive: -3.79%.
On to `CC(C)c1ccc(C(=O)NCC2(N3CCOCC3)CCCCC2)cc1`, for which the inhibition was inactive: -2.46%.
To `COc1ccc(NC2CCN(C(=O)OC(C)(C)C)CC2)cc1` belongs inactive: -4.07%; to `CN1CCN(CCOC(=O)C(O)(c2ccccc2)c2ccccc2)CC1`, inactive: -8.26%; to `CC(C)c1ccc(NC2CCN(C(=O)OC(C)(C)C)CC2)cc1`, inactive: 4.79%.
In the case of `CN(C)c1cccc(C(=O)NCC2(N3CCCCC3)CCCCC2)c1`, the inhibition was inactive: -7.81%.
With `COc1ccc(CN(CCCl)CCCl)cc1Cl` the figure was inactive: 10.7%.
For the compound `O=C(NCC1(N2CCOCC2)CCCCC1)c1cc(F)c(F)cc1Cl`, the inhibition was inactive: -3.11%.
Consider `COc1cc(OC)c(C(=O)NCC2(N(C)C)CCCCC2)cc1OC`, for which the inhibition is inactive: 1.09%.
With `O=C(NCC1(N2CCCCC2)CCCCC1)c1cncc(Br)c1` the figure was inactive: -0.01%; with `CN1CCC(Nc2cccc(F)c2)CC1`, inactive: -2.65%; with `CCCOc1ccc(C(=O)NCC2(N(C)C)CCCCC2)cc1OC`, inactive: -1.75%.
Consider `COc1cc(C(=O)NCC2(N3CCOCC3)CCCCC2)cc(OC)c1C`, for which the inhibition was inactive: 0.94%.
In the case of `O=C(NCC1(N2CCOCC2)CCCCC1)c1cc(Br)ccc1Cl`, the inhibition was inactive: -1.76%.
To `COc1ccc(C(=O)NCC2(N3CCOCC3)CCCCC2)cc1OC` belongs inactive: -6.82%; to `CCOC(=O)N1CCC(Nc2ccc(C)cc2)CC1`, inactive: -0.19%.
Regarding `N/C(=N\O)c1c(N)no[n+]1[O-]`, the inhibition is inactive: -0.67%.
With `O=C(OC1CN2CCC1CC2)C1c2ccccc2C=Cc2ccccc21` (stereo not given), the inhibition is inactive: -1.12%.
With `CCc1cc(C(=O)NCC2(N3CCCCC3)CCCCC2)sc1C` the figure was inactive: -3.65%; with `N#Cc1ccc(C(=O)NCC2(N3CCCCC3)CCCCC2)cc1`, inactive: -1.71%.
Turning to `CC(C)(C)OC(=O)N1CCC(N(C(=O)c2ccccc2)c2ccc(Cl)cc2)CC1`, the inhibition is inactive: 2.03%.
For `CN(C)C1(CNC(=O)c2cccc(C#N)c2)CCCCC1`, the inhibition was inactive: 5.18%.
With `Cc1cc(N(CCCl)CCCl)ccc1C=O` the figure was inactive: 0.36%.
In the case of `CCCN1CCC(Nc2cc(OC)cc(OC)c2)CC1`, the inhibition is inactive: 12.1%.
`c1ccc(CN2CCC(Nc3ccccc3)CC2)cc1`: the inhibition was inactive: -0.54%.
For the compound `CC(=O)N(c1ccccc1)C1CCNCC1`, the inhibition was inactive: -6.87%.
To `COc1cc(OC)cc(C(=O)NCC2(N3CCCCC3)CCCCC2)c1` belongs inactive: -6.32%; to `Fc1ccccc1NC1CCN(Cc2ccccc2)CC1`, inactive: 12.9%; to `Cc1ccc(C(=O)NCC2(N3CCCCC3)CCCCC2)o1`, inactive: -1.66%.
With `Cc1ccc(NC2(C#N)CCN(Cc3ccccc3)CC2)cc1`, the inhibition was inactive: 0.88%.
With `CCN1CCC(Nc2cccc(F)c2)CC1`, the inhibition was inactive: 10.7%.
With `Cc1ccccc1NC1(C#N)CCN(Cc2ccccc2)CC1`, the inhibition was inactive: -5.4%.
Take `Cn1c(=O)[nH]cc(N(CCCl)CCCl)c1=O`: the inhibition is inactive: -3.67%.
As for `CN(C)c1ccc(C(=O)NCC2(N3CCCCC3)CCCCC2)cc1`, the inhibition was inactive: 0.7%.
For the compound `O=C(NCC1(N2CCCCC2)CCCCC1)c1ccco1`, the inhibition was inactive: -7.58%.
For `CN1CCC(Nc2ccc(F)c(Cl)c2)CC1`, the inhibition was inactive: 0.08%.
Regarding `CCOc1ncccc1C(=O)NCC1(N2CCOCC2)CCCCC1`, the inhibition was inactive: -4.52%.
To `O=C(O)C1(Nc2ccccc2)CCN(Cc2ccccc2)CC1` belongs inactive: 4.04%; to `CC(C)(C)OC(=O)N1CCC(Nc2ccccc2)CC1`, inactive: -12.5%.
For the compound `CCCOc1ccc(C(=O)NCC2(N(C)C)CCCCC2)cc1`, the inhibition was inactive: -7.26%.
`COc1cccc(C(=O)N(c2cc(C)cc(C)c2)C2CCN(C(=O)OC(C)(C)C)CC2)c1`: the inhibition is inactive: 0.48%.
Regarding `COc1cc(OC)cc(C(=O)NCC2(N3CCOCC3)CCCCC2)c1`, the inhibition is inactive: 9.22%.
For the compound `CCC(CO)(C(=O)OC1CN2CCC1CC2)c1ccccc1` (stereo not given), the inhibition was inactive: -11.3%.
With `CN1CCC(Nc2ccc(Cl)cc2)CC1`, the inhibition was inactive: -4.52%.

These data come from PubChem BioAssay AID493160 (Sanford-Burnham Center for Chemical Genomics, 2011).
